Experimental data: patent US20020142016A1, “Stable skin care product containing a retinoid and a retinoid booster system in a dual compartment package” (priority 2000, published 2002)

These molecules were tested against T1, LRAT (Bos taurus, UniProt Q9BGL2) (assay: Assay for LRAT activity in RPE microsomes). Settings: 100 μm compound.
T1 construct: followed by approximately 15 pg of RPE microsomal protein; tissue W. L. Lawson Co., Lincoln, Nebr; host or cells: bovine retinal pigment epithelium microsomes
T1 sequence (Q9BGL2 1-230): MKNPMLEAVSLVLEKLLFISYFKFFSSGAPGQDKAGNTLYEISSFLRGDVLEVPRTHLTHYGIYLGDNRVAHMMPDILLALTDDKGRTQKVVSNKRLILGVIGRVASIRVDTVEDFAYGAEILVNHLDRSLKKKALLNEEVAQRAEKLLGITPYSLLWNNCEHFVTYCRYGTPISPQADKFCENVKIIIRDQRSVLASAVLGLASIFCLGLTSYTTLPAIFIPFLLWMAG
Assay type: biochemical, bovine

Row | inhibition at 100 µM | SMILES
1 | 0% | CC(C)=CCCC(C)CCO (stereo not drawn) [Citronellol]
2 | 28% | C[C@H]1[C@H](C)CC[C@]2(C(=O)O)CC[C@]3(C)C(=CC[C@@H]4[C@@]5(C)CC[C@H](O)C(C)(C)[C@@H]5CC[C@]43C)[C@H]12 [Urosolic Acid]
3 | 33% | CCCCCCCCCCCCCCCC(=O)NCCO [Palmitamide-MEA]
